Tested on: C. rodentium
Conditions: mouse, in vivo

In the case of polyethylene glycol [PEG], the induction of diarrhea is reported as “did not induce diarrhea” and the “stool pellet formation in colon” value is reported as “able to form stool pellets”.
